Values joined by “and” are separate entries in the source; they are usually repeats but may differ in a detail not shown here. Equal values may be shown once.
How the values were obtained:
OR85b = tested on: OR85b; set-up: method as in earlier work; settings: DoOR database value; ref DoOR; cited from earlier work
Drosophila OR71a = target: T1, Drosophila OR71a (Drosophila melanogaster, UniProt Q9VUK5); test: Calcium ion fluorescence (GCaMP6) assay, OR71a stable HEK293 cell line; assay type: cell-based; settings: for OR71a Average response (VUAA1-normalized): 50 μM VUAA1 = 1; for Average response: OR71a cell line, VUAA1-normalized response, mean of biological replicates; for DF norm AVERAGE OR71a: normalized fluorescence change, values below 0.05 threshold given as 0
T1 construct: expressed in transfected cells
T1 sequence (Q9VUK5 1-378): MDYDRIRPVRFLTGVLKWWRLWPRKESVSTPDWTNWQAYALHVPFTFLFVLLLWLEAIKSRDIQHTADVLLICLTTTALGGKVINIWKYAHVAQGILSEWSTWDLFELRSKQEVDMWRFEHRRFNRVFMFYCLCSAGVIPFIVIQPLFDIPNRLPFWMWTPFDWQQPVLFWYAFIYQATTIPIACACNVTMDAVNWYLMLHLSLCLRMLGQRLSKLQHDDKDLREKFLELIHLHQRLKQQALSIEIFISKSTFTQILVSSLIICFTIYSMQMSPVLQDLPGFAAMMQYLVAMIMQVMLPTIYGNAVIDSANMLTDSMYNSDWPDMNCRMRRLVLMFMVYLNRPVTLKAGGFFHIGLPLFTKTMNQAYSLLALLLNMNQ
T1 sequence (Q9VNB5 1-486 partner): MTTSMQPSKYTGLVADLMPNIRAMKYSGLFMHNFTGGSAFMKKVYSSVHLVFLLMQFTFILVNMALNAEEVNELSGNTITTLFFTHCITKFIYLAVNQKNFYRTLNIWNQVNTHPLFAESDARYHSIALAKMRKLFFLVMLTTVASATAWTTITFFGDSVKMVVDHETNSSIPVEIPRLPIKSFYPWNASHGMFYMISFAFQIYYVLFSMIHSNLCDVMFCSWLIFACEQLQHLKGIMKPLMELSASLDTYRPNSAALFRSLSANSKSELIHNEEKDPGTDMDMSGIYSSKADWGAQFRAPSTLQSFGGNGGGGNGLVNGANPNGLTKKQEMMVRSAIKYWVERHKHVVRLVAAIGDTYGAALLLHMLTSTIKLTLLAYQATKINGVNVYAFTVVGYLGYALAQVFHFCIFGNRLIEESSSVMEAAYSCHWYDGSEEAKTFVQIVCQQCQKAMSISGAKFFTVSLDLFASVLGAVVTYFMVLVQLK
Experimental: These VUAA1 normalized ∆F values were used to compare the different receptors and ligands.
The concentration-dependent effect of the reference ligands on their cognate cell lines was examined in more detail. Twelve different ligand concentrations were measured on each cell line in an overall 0.01 μM to 100 μM concentration range with 5 repetitions with three technical replicates each time.
Twelve thousand to 18,000 cells were plated into each well of a black wall, transparent bottom 384-well microplate (Greiner) 48 h or 72 h before the measurements and were simultaneously treated with 1 μg/mL doxycycline. […] The plate has 24 columns, thus we could record responses in up to eight different cell lines in each plate. On the day of the experiment, the growth medium was replaced with 20 µL assay buffer/well (140 mM NaCl, 5 mM KCl, 2 mM CaCl2, 1 mM MgCl2, 5 mM HEPES-Na, 20 mM glucose, pH 7.3, 340 mOsm). […] Baseline fluorescence (F0) was recorded for 5 s, after which 7 µL VOC buffer (140 mM NaCl, 5 mM KCl, 2 mM CaCl2, 1 mM MgCl2, 5 mM HEPES-Na, 31 mM glucose, 0.1% DMSO, pH 7.3, 340 mOsm) was injected into each well in one row and the fluorescence response was recorded for an additional 30 s, at a rate of one read/sec. VOC solutions (VOC buffer with 4× concentration of the final measured VOC concentration, 9 µL/well was injected) were measured on the same wells in a second round with the same protocol. Each individual concentration of a specific VOC sample was recorded in three wells for the same cell line on the same microplate. The raw data were exported in xls file format, F0 and FMAX values, and the fluorescence intensity changes (∆F) were calculated in Excel (Microsoft) (Supplementary file Data summary.xlsx) using the following equation: ΔF=FMAX-F0/F0 (see also Fig. 1C). On each plate, we recorded the response of each cell line to 50 µM VUAA1. The average of these ∆F values of each cell line were used to calculate the VUAA1-normalized values for the rest of the plate, by dividing VOC response ∆F values by the average VUAA1 response ∆F value of the corresponding OR cell line. Each VOC-OR combination was measured three times as technical replicates. […] The average of these replicates were used as one ∆F and VUAA1-normalized ∆F in the following analysis.
In the next rows we tested the reference VOCs (or other VOCs known to activate the corresponding cell lines), in order to test if all cell lines are responsive. The remaining rows were used to test VOCs with unknown effect.
The recorded FMAX, F0, ∆F, VUAA1-normalized ∆F values, as well as the OR name, the name of the tested sample, and the final concentration for each well were copied into supplementary file Data summary.xlsx, that was used to summarize all the plates recorded. Here, the averages of the measurements were calculated for each receptor-VOC-concentration combination.

OR71a = tested on: OR71a; set-up: method as in earlier work; settings: DoOR database value; ref DoOR; cited from earlier work
OR49b = tested on: OR49b; set-up: method as in earlier work; settings: DoOR database value; ref DoOR; cited from earlier work
[1] = HEK293, read-out: OR71a response (VUAA1-normalized response)
[2] = OR71a, average of 5 biological replicates
[3] = OR71a, fit of each biological replicate
[4] = OR71a, fit of the averaged curve

CC(=O)CCC=C(C)C [6-methyl-5-hepten-2-one]
OR85b DoOR response (OR85b): 0.75 | OR71a Average response (VUAA1-normalized) (Drosophila OR71a; 1 μM VOC): 0.03 | OR71a Average response (VUAA1-normalized) (Drosophila OR71a; 10 μM VOC): 0.18 | OR71a Average response (VUAA1-normalized) (Drosophila OR71a; 100 μM VOC): 0.19 | EC50 (Drosophila OR71a; AVERAGE EC50, OR71a, printed with 95% confidence interval, matches the average LOG EC50): 1.62 µM | EC50 (Drosophila OR71a; EC50 (fitted parameter), OR71a, fit of each biological replicate): 3.42 µM and 1.63 µM and 1.41 µM and 2.57 µM and 0.543 µM | EC50 (Drosophila OR71a; EC50, AVERAGE, OR71a, arithmetic average of 5 replicate EC50): 1.92 µM | EC50 (Drosophila OR71a; EC50, FITTED AVERAGE CURVE, OR71a, fit of the averaged curve): 1.54 µM | EC50 (Drosophila OR71a; EC50, OR71a cell line, fitted Hill equation, Hill coefficient constrained to 1, maximal response max 1): 1.62 µM | activation at 1 µM (Drosophila OR71a; [1]): 0% | activation at 10 µM (Drosophila OR71a; [1]): 18% | activation at 100 µM (Drosophila OR71a; [1]): 19% | Emax (Drosophila OR71a; HEK293, read-out: VUAA1 normalized MAX response): 20% | EC50 (Drosophila OR71a; LOG EC50, AVERAGE, OR71a, average of 5 biological replicates): 1.62 µM | Average response (Drosophila OR71a; cc. 1 µM): 0.0267 | Average response (Drosophila OR71a; cc. 10 µM): 0.18 | Average response (Drosophila OR71a; cc. 100 µM): 0.19 | response, AVERAGE (Drosophila OR71a; OR71a, VOC concentration 0.15): 0 | response, biological replicates (Drosophila OR71a; OR71a, VOC concentration 0.15): 0 | response, AVERAGE (Drosophila OR71a; OR71a, VOC concentration 0.3): 0.02478 | response, biological replicates (Drosophila OR71a; OR71a, VOC concentration 0.3): 0.09911 and 0 (3×) | response, AVERAGE (Drosophila OR71a; OR71a, VOC concentration 0.6): 0.02954 | response, biological replicates (Drosophila OR71a; OR71a, VOC concentration 0.6): 0 (3×) and 0.08838 and 0.05933 | response, AVERAGE (Drosophila OR71a; OR71a, VOC concentration 1.25): 0.07965 | response, biological replicates (Drosophila OR71a; OR71a, VOC concentration 1.25): 0.1099 and 0 and 0.129 | response, AVERAGE (Drosophila OR71a; OR71a, VOC concentration 2.5): 0.1242 | response, biological replicates (Drosophila OR71a; OR71a, VOC concentration 2.5): 0.1201 and 0.133 and 0.08738 and 0.142 and 0.1387 | response, AVERAGE (Drosophila OR71a; OR71a, VOC concentration 5): 0.1684 | response, biological replicates (Drosophila OR71a; OR71a, VOC concentration 5): 0.1067 and 0.1704 and 0.1827 and 0.2138 | response, AVERAGE (Drosophila OR71a; OR71a, VOC concentration 10): 0.2413 | response, biological replicates (Drosophila OR71a; OR71a, VOC concentration 10): 0.194 and 0.2008 and 0.2784 and 0.2921 | response, AVERAGE (Drosophila OR71a; OR71a, VOC concentration 20): 0.1802 | response, biological replicates (Drosophila OR71a; OR71a, VOC concentration 20): 0.2754 and 0.1495 and 0.1134 and 0.2326 and 0.13 | response, AVERAGE (Drosophila OR71a; OR71a, VOC concentration 40): 0.187 | response, biological replicates (Drosophila OR71a; OR71a, VOC concentration 40): 0.1021 and 0.2434 and 0.1602 and 0.3055 and 0.1239 | response, AVERAGE (Drosophila OR71a; OR71a, VOC concentration 60): 0.1715 | response, biological replicates (Drosophila OR71a; OR71a, VOC concentration 60): 0.2768 and 0.1012 and 0.2214 and 0.08644 | response, AVERAGE (Drosophila OR71a; OR71a, VOC concentration 80): 0.1832 | response, biological replicates (Drosophila OR71a; OR71a, VOC concentration 80): 0.2635 and 0.1848 and 0.1112 and 0.2643 and 0.09198 | response, AVERAGE (Drosophila OR71a; OR71a, VOC concentration 100): 0.1563 | response, biological replicates (Drosophila OR71a; OR71a, VOC concentration 100): 0.1989 and 0.09653 and 0.1984 and 0.1315 | AVERAGE MAX (Drosophila OR71a; [2]): 0.2003 | n, AVERAGE (Drosophila OR71a; [2]): 1 | MAX (fitted parameter) (Drosophila OR71a; [3]): 0.2331 and 0.2213 and 0.1441 and 0.2684 and 0.1348 | n (fitted parameter) (Drosophila OR71a; [3]): 1 | MAX, FITTED AVERAGE CURVE (Drosophila OR71a; [4]): 0.1989 | n, FITTED AVERAGE CURVE (Drosophila OR71a; [4]): 0.855 | DF norm AVERAGE OR71a (Drosophila OR71a; concentration 1): 0 | DF norm AVERAGE OR71a (Drosophila OR71a; concentration 10): 0.1839 | DF norm AVERAGE OR71a (Drosophila OR71a; concentration 100): 0.1937 | OR71a DoOR response (OR71a): 0.002 | OR49b DoOR response (OR49b): 0.008

Reference: paper PMC10709440, “High-throughput ligand profile characterization in novel cell lines expressing seven heterologous insect olfactory receptors for the detection of volatile plant biomarkers” (Scientific Reports, 2023)
